What was measured:
RAW264.7 cells = test: Osteoclast resorption activity, OAAS plates
OPN promoter = OPN promoter luciferase reporter assay in melanoma cell lines

Structure (SMILES): CC1=C2C[C@H]3[C@@H](CC=C4C[C@@H](O)CC[C@@]43C)[C@@H]2CC[C@]12O[C@@H]1C[C@H](C)CN[C@H]1[C@H]2C [cyclopamine]
- differentiation and resorptive activity potentiated by breast cancer cell-conditioned medium (RAW264.7 cells; cyclopamine 20 μM): remarkably compromised
- ability of MDA-MB-435 cells to activate resorptive function (RAW264.7 cells; tumor cells treated with cyclopamine): significantly reduced their ability to activate the resorptive function
- OPN promoter activity (OPN promoter; MCC012A, 10 μM): noticeable, but not significant (p=0.06) decrease
- OPN promoter activity (OPN promoter; MCC012A, 20 μM): significant decrease (p=0.0006)
- OPN promoter activity (OPN promoter; MCC012F, 10 μM and 20 μM): significant (p=0.042 and 0.002, respectively) decrease
- OPN promoter activity (OPN promoter; MDA-MB-435, MCC012A, MCC012F): decreases the activity of the OPN promoter
